Assays:
coronary arteries [1] = assay: Coronary spasms induced by neuropeptide Y and ergovine in mini pigs, intracoronary CGRP; assay type: in vivo
Method: (§1) Four mini pigs were anesthetized using Ketamine and xylazine, and maintained on isoflurane during coronary catheterization. After basal angiography, coronary spasms were induced by intracoronary administration of a combination of neuropeptide Y (2.5 nmol) and ergovine (50 μg). Normal saline (for control animals) and normal saline containing 0.50 nmol of CGRP prepared as in Example 1 were administered into coronary arteries through the catheter. The saline or saline/CGRP solution was injected into the coronary artery as a bolus dose. The change in diameter of the coronary artery was measured by digital angiography and miniature doplar probes.

coronary arteries [2] = assay: Intracoronary bolus injection of CGRP in patients with angina pectoris secondary to coronary artery narrowing, angiography; assay type: in vivo, humans
Method: Six humans with angina pectoris secondary to narrowing of the coronary arteries were selected for this procedure. In preparation for angioplasty,0.5 nmol of CGRP synthesized as described in Example 1 was dissolved in sterile normal saline to form a 0.004% solution of CGRP. The solution was loaded into a angiographic catheter by a microbore syringe. […] After the CGRP was injected as a bolus dose, the change in diameter of the coronary artery was measured by angiography immediately and 5-10 minutes after the injection. […] The improvement of the coronary artery diameter ranged between 30-80%, as measured by angiography. FIG. 1 is a representative angiograph showing the improvement in one patient who underwent the procedure.

[3] = Acute renal failure induced by clamping the renal arteries, intravenous CGRP; assay type: in vivo; details: rats, renal arteries clamped 50 minutes; intravenous 0.8 nmol/kg/hr CGRP in saline
Method: CGRP also has been infused intravenously into rats that have been prepped to experimentally simulate acute renal failure using known procedures. […] Similar results have been observed with reperfusion injury affecting the heart and brain.
One in each pair of rats was used as a test animal and one as a control. The induced rats were intravenously injected with normal saline (5 ml/hr) either (1) alone, as a control, or (2) containing the following: 0.8 nmol/kg/hr of CGRP prepared as in Example 1; 0.6 mmol/kg/hr of a free radical scavenger--either N-acetyl cysteine, obtained from Faulding Hospital Products, Inc., N.J., or amifostine (ethiofos, WR2721), 0.2 mmol/kg/hr, obtained from U.S. Bioscience, Inc., PA.
The combined therapy of CGRP and a free radical scavenger further increased the glomerular filtration rate and the urine output to 4-5 fold. Maintenance of satisfactory urine output and glomerular filtration are extremely important to recovery from acute renal failure.

coronary arteries [4] = assay: Coronary spasms induced by neuropeptide Y and ergonovine in beagles, intracoronary CGRP; assay type: in vivo, dog (beagles)
Method: as §1, with “beagles were used in this procedure. The dogs” for “mini pigs”, “telazol,” for “Ketamine and”, “butrophanol, and” for “maintained on isoflurane during”, “catheterization was performed.” for “catheterization.”, “ergonovine” for “ergovine”, “0.25” for “0.50”

Substance: calcitonin gene-related peptide (ACDTATCVTHRLAGLLSRSGGVVKNNFVPTNVGSKAF; Calcitonin gene-related peptide 1; UniProt P06881 83-119, looked up) [CGRP, 1, synthesized by Merrifield t-Boc solid-phase chemistry]
- increase in the diameter of the coronary arteries (coronary arteries [1]; 0.50 nmol intracoronary bolus, digital angiography and miniature doplar probes): 40%-50%
- coronary spasms and coronary artery blood flow (coronary arteries [1]; pig model, spasms induced by chemicals (neuropeptide Y or ergonovine) or by the guidewire): completely abolished coronary spasms and re-established the coronary artery blood flow
- improvement of the coronary artery diameter, as measured by angiography (coronary arteries [2]; 0.5 nmol intracoronary bolus, measured immediately and 5-10 minutes after injection, six patients with 40-90% blockage): 30-80%
- blood flow in the coronary arteries (miniature doplers) (coronary arteries [2]; after infusion of CGRP, preliminary studies): significant increase of blood flow
- cardiac pain and electrocardiographic changes associated with ischemia (coronary arteries [2]; bolus dose or infusion into the coronary arteries of humans): relieved cardiac pain and reversed electrocardiographic changes
- angina pain (coronary arteries [2]; patients suffering from angina pain at the time of the procedure (4 out of 6), after intracoronary injection): the pain immediately subsided
- increase in glomerular filtration rate [3]: 3 fold
- increase in urine output [3]: 3 fold
- increase in the diameter of the coronary arteries (coronary arteries [4]; 0.25 nmol intracoronary bolus, digital angiography and miniature doplar probes): 50%
- coronary spasms and coronary artery blood flow (coronary arteries [4]; dog model, spasms induced by chemicals (neuropeptide Y or ergonovine) or by the guidewire): completely abolished coronary spasms and re-established the coronary artery blood flow

Reference: patent US5958877A, “Method for counteracting vasospasms, ischemia, renal failure, and treating male impotence using calcitonin gene related peptide” (priority 1995, dated 1999)
